{"source": "BindingDB's records for 23453838", "molecular_target": "Acetylcholinesterase (Rattus norvegicus, UniProt P37136)", "assay": "ASSAY_NAME: ChEMBL_954151 (CHEMBL2351424) […]", "note": "Some compounds may have been tested in ways that are not shown here."}
{"compound": "CCOP(=O)(OCC)Oc1ccc([N+](=O)[O-])cc1", "values": [{"measurement": "kon (M-1-s-1)", "value": 567, "unit": "M⁻¹ s⁻¹"}]}
